The values that follow come from patent US9371358B2 (priority 2010, dated 2016).

The data set has as its system Human prostate cancer cell line (PC-3). Description: MTT cell proliferation assay, cytotoxicity and GI50, PC-3. Conditions: human cancer cell lines (PC-3 and HT-29, Table 1); statement in words. A general note: Tetrazolium dyes change colour on reduction, which living cells bring about.

Take `CCCCNC(=O)CN(C(=O)[C@@H](NC(=O)[C@H]1CCCCN1C)[C@@H](C)CC)[C@H](C[C@@H](OC(C)=O)c1nc(C(=O)N[C@@H](Cc2ccccc2)C[C@H](C)C(=O)O)cs1)C(C)C` [tubugi A]: the “cytotoxic activity compared with tubulysin A” value is “almost identical to that of tubulysin A”.
On to `CC[C@H](C)[C@H](NC(=O)[C@H]1CCCCN1C)C(=O)N(CC(=O)NC(C)C)[C@H](C[C@@H](OC(C)=O)c1nc(C(=O)N[C@@H](Cc2ccccc2)C[C@H](C)C(=O)O)cs1)C(C)C` [tubugi B], for which the “cytotoxic activity compared with tubulysin A” value is on record as “almost identical to that of tubulysin A”.
As for `CCCCNC(=O)C(C)N(C(=O)[C@@H](NC(=O)[C@H]1CCCCN1C)[C@@H](C)CC)[C@H](C[C@@H](OC(C)=O)c1nc(C(=O)N[C@@H](Cc2ccccc2)C[C@H](C)C(=O)O)cs1)C(C)C` (stereo partly drawn) [tubugi D], the “cytotoxic activity compared with tubulysin A” value is “almost identical to that of tubulysin A”.
